In the assay the target is T1, Serine/threonine-protein kinase Sgk1 (Homo sapiens, UniProt O00141).
T1 sequence (O00141 whole entry): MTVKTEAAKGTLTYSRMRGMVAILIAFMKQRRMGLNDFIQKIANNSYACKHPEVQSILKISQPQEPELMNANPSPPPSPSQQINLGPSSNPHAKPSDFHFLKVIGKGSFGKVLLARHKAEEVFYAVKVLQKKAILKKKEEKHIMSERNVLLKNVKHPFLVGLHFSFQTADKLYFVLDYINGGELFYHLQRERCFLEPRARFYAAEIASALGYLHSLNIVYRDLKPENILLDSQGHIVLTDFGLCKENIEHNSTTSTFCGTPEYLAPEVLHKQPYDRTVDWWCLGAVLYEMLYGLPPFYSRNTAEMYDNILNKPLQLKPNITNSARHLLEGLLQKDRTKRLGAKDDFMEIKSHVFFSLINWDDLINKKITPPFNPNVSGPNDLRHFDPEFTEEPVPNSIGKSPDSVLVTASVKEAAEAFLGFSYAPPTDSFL
Briefly: Inhibition of SGK1 by fluorescence polarization assay. On the technique in general: In fluorescence polarisation assays a small probe gives low polarisation when free and higher when bound to something large.

The IC50 is the concentration that inhibits the measured activity by half. Low readings indicate higher potency, high ones lower potency. Take `O=C(O)Cc1ccc(-c2c[nH]c3ncc(-c4ccc5ccccc5c4)cc23)cc1`: the midpoint of inhibition, the IC50, lay at 63 nM.

The values above are taken from ChEMBL document CHEMBL1152975, “Design and synthesis of orally bioavailable serum and glucocorticoid-regulated kinase 1 (SGK1) inhibitors” (Bioorg Med Chem Lett, 2009).
